# EP4834897A1, “COMPOUNDS WITH TWO AZAHETEROCYCLES SUBSTITUTED ISOINDOLINONE SKELETON AND USES THEREOF” (dated 2026)
# Sequences of proteins named here, by UniProt entry; tags and fusion partners are left off.
# UniProt Q96SW2, whole entry: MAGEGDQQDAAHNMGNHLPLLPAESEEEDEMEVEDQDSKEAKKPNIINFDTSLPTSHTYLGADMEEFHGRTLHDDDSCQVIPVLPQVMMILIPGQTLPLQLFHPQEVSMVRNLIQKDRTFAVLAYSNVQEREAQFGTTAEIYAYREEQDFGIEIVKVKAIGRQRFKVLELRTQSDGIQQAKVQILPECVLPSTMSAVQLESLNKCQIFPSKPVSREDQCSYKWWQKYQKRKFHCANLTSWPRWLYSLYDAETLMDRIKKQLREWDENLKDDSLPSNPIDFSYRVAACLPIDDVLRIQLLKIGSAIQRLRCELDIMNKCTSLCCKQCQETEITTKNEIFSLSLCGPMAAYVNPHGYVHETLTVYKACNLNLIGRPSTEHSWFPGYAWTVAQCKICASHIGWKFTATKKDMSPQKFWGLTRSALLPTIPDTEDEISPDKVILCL
# UniProt P48729, whole entry: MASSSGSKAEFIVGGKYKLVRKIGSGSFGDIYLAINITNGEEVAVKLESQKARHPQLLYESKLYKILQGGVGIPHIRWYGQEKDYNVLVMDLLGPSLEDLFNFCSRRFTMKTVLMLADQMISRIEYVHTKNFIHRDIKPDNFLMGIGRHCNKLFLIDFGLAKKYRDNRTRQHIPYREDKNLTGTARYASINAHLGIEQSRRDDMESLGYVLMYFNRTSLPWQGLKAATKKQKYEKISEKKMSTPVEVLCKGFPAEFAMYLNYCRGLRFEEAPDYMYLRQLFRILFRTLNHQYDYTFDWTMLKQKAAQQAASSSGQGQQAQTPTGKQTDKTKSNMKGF
# UniProt P15170, whole entry: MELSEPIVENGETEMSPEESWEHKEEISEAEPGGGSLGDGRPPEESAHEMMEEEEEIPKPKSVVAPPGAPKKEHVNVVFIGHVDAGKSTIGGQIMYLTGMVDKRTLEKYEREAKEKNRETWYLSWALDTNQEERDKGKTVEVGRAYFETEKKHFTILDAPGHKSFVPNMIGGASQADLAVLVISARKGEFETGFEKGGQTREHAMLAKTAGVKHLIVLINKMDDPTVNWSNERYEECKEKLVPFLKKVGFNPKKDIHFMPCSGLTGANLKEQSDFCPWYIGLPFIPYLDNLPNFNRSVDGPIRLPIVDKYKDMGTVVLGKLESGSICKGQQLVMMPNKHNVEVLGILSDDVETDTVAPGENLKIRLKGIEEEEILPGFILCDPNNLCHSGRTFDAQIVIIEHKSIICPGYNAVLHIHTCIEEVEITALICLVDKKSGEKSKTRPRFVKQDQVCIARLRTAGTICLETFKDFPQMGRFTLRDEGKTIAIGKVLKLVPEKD
# UniProt Q13422, whole entry: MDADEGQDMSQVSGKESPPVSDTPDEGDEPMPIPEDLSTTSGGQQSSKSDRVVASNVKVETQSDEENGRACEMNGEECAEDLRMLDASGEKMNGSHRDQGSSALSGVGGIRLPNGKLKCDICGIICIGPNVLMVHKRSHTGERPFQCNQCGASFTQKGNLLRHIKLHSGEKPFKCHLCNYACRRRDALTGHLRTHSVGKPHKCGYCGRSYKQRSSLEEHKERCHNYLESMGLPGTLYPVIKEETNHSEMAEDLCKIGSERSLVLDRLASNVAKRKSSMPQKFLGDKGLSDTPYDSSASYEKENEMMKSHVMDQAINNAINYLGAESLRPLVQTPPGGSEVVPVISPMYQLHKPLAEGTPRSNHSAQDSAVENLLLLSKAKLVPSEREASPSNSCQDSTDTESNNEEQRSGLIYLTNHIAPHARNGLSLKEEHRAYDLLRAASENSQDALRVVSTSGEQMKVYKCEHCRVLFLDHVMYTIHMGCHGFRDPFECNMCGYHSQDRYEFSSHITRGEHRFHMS
# UniProt Q9UKS7, whole entry: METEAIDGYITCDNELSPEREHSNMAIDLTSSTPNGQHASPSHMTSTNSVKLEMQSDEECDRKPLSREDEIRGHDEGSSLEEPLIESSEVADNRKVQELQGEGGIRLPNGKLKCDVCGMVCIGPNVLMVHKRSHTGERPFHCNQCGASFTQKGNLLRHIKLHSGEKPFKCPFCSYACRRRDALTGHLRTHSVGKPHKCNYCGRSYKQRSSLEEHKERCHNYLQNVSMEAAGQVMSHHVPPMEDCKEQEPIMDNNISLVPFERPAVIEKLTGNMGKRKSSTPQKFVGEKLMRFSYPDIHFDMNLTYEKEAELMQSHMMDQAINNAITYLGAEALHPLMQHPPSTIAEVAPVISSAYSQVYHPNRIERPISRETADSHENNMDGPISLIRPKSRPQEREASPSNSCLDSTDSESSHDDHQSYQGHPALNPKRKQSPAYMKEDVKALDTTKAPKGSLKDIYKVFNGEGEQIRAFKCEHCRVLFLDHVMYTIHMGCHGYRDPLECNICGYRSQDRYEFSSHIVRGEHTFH
# UniProt Q9UKT9, whole entry: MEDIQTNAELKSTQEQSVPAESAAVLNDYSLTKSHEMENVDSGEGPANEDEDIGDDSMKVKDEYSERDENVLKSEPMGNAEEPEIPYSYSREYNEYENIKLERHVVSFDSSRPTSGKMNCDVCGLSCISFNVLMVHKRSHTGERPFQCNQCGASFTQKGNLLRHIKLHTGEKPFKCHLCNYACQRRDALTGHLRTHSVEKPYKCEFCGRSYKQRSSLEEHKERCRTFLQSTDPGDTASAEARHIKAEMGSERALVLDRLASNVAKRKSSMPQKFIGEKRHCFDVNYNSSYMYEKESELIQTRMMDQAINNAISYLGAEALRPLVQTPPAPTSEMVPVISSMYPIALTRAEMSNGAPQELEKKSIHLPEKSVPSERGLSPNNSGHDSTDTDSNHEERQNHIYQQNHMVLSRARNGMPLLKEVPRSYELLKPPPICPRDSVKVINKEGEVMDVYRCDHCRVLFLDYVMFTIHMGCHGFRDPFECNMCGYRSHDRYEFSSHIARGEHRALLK
# UniProt P30291, whole entry: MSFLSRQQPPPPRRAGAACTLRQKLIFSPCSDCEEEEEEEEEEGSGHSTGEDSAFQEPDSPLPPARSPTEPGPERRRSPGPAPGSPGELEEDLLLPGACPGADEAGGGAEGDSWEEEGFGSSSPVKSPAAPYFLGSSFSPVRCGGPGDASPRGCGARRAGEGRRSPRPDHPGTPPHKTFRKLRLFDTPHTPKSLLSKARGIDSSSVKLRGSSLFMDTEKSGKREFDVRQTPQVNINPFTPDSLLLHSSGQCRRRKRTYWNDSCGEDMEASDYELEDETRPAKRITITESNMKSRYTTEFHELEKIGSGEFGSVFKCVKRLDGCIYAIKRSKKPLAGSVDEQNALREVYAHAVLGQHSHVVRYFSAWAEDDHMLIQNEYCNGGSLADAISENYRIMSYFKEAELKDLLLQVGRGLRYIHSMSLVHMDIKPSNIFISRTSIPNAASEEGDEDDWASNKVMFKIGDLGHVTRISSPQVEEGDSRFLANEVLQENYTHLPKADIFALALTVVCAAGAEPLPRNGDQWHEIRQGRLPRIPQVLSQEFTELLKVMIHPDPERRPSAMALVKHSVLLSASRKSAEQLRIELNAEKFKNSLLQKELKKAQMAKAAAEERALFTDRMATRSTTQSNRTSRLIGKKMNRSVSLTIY
# UniProt Q16531, whole entry partner: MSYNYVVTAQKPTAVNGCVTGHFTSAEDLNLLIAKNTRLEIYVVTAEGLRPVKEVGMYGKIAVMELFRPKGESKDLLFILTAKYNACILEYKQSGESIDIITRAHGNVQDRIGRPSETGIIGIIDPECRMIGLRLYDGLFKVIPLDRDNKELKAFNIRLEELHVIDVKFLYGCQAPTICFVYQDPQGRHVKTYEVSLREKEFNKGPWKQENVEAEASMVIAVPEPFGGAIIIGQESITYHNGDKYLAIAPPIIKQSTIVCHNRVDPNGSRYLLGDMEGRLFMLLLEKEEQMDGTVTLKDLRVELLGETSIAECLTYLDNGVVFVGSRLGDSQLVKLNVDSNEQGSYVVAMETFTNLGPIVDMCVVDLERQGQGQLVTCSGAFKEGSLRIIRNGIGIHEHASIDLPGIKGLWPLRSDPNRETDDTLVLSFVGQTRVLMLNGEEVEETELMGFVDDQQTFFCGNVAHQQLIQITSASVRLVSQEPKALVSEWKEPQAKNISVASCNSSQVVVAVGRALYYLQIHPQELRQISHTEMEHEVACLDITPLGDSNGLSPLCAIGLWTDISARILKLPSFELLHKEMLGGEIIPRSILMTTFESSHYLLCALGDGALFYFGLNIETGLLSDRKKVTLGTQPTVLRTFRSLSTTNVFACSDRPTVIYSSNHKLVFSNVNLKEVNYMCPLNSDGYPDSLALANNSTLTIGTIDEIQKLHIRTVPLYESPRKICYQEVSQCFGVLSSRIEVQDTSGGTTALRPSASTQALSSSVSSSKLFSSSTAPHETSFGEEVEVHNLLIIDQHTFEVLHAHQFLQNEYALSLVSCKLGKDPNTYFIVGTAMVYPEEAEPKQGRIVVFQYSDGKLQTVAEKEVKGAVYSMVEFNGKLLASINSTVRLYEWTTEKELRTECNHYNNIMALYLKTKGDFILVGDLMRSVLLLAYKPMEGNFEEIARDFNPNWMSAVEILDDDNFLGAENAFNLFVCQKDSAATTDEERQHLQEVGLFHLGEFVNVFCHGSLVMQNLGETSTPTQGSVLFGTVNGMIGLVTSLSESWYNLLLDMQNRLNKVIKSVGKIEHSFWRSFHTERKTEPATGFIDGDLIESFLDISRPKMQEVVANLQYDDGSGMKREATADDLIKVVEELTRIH
# Molecular target: CRBN (Homo sapiens, UniProt Q96SW2)
# Assay: CRBN binding affinity by HTRF (CEREBLON BINDING kit)
# Details: CRBN binding, HTRF, compound at 0.5 µM
row,SMILES,Inhibition Rate at 0.5 µM (%)
1,CC1(C)CCC(CN2CCN(C3CCN(C(=O)c4ccc5c(c4)CN(C4CCC(=O)NC4=O)C5=O)CC3(F)F)CC2)=C(c2ccc(Cl)cc2)C1 (stereo not drawn),a1 (10% < a1 ≤ 20%)
2,O=C1CCC(N2Cc3cc(CN4CCC(N5CCN(c6cccc(Cl)c6Cl)CC5)C(F)(F)C4)cc(F)c3C2=O)C(=O)N1 (stereo not drawn),a4 (40% < a4 ≤ 53%)
3,CC1(C)CCC(C(=O)N2CCN(C3CCN(C(=O)c4ccc5c(c4)C(=O)N(C4CCC(=O)NC4=O)C5=O)CC3(F)F)CC2)=C(c2ccc(Cl)cc2)C1 (stereo not drawn),a3 (30% < a3 ≤ 40%)
4,CC1(C)CCC(C(=O)N2CCN(C3CCN(Cc4ccc5c(c4)C(=O)N(C4CCC(=O)NC4=O)C5=O)CC3(F)F)CC2)=C(c2ccc(Cl)cc2)C1 (stereo not drawn),a2 (20% < a2 ≤ 30%)
5,O=C1CCC(N2Cc3c(C(=O)N4CCC(N5CCN(C(c6ccccc6)c6ccccn6)CC5)C(F)(F)C4)cccc3C2=O)C(=O)N1 (stereo not drawn),a3 (30% < a3 ≤ 40%)
6,O=C1CCC(N2Cc3cccc(CN4CCC(N5CCN(c6cccc(Cl)c6Cl)CC5)C(F)(F)C4)c3C2=O)C(=O)N1 (stereo not drawn),a2 (20% < a2 ≤ 30%)

# Same assay, conditions: CRBN binding, HTRF, compound at 2 µM
row,SMILES,Inhibition Rate at 2 µM (%)
1,CC1(C)CCC(CN2CCN(C3CCN(C(=O)c4ccc5c(c4)CN(C4CCC(=O)NC4=O)C5=O)CC3(F)F)CC2)=C(c2ccc(Cl)cc2)C1 (stereo not drawn),a6 (60% < a6 ≤ 70%)
2,O=C1CCC(N2Cc3cc(CN4CCC(N5CCN(c6cccc(Cl)c6Cl)CC5)C(F)(F)C4)cc(F)c3C2=O)C(=O)N1 (stereo not drawn),a7 (70% < a7 ≤80%)
3,CC1(C)CCC(C(=O)N2CCN(C3CCN(C(=O)c4ccc5c(c4)C(=O)N(C4CCC(=O)NC4=O)C5=O)CC3(F)F)CC2)=C(c2ccc(Cl)cc2)C1 (stereo not drawn),a6 (60% < a6 ≤ 70%)
4,CC1(C)CCC(C(=O)N2CCN(C3CCN(Cc4ccc5c(c4)C(=O)N(C4CCC(=O)NC4=O)C5=O)CC3(F)F)CC2)=C(c2ccc(Cl)cc2)C1 (stereo not drawn),a6 (60% < a6 ≤ 70%)
5,O=C1CCC(N2Cc3c(C(=O)N4CCC(N5CCN(C(c6ccccc6)c6ccccn6)CC5)C(F)(F)C4)cccc3C2=O)C(=O)N1 (stereo not drawn),a6 (60% < a6 ≤ 70%)
6,O=C1CCC(N2Cc3cccc(CN4CCC(N5CCN(c6cccc(Cl)c6Cl)CC5)C(F)(F)C4)c3C2=O)C(=O)N1 (stereo not drawn),a5 (53% < a5 ≤ 60%)

# Molecular target: CK1α (Homo sapiens, UniProt P48729+Q96SW2)
# Assay: Western blot assay of substrate protein degradation in hPBMCs
# Details: 24 hours treatment, compounds at 50 nM and 500 nM (concentration behind the class not stated)
row,SMILES,substrate protein remaining % (CK1a)
1,CC1(C)CCC(CN2CCN(C3CCN(C(=O)c4ccc5c(c4)CN(C4CCC(=O)NC4=O)C5=O)CC3(F)F)CC2)=C(c2ccc(Cl)cc2)C1 (stereo not drawn),B (80%< substrate protein remaining %≤ 100%)
2,O=C1CCC(N2Cc3cc(CN4CCC(N5CCN(c6cccc(Cl)c6Cl)CC5)C(F)(F)C4)cc(F)c3C2=O)C(=O)N1 (stereo not drawn),B (80%< substrate protein remaining %≤ 100%)
3,CC1(C)CCC(C(=O)N2CCN(C3CCN(C(=O)c4ccc5c(c4)C(=O)N(C4CCC(=O)NC4=O)C5=O)CC3(F)F)CC2)=C(c2ccc(Cl)cc2)C1 (stereo not drawn),B (80%< substrate protein remaining %≤ 100%)
4,CC1(C)CCC(C(=O)N2CCN(C3CCN(Cc4ccc5c(c4)C(=O)N(C4CCC(=O)NC4=O)C5=O)CC3(F)F)CC2)=C(c2ccc(Cl)cc2)C1 (stereo not drawn),A (0% ≤ substrate protein remaining % ≤ 80%)
5,O=C1CCC(N2Cc3c(C(=O)N4CCC(N5CCN(C(c6ccccc6)c6ccccn6)CC5)C(F)(F)C4)cccc3C2=O)C(=O)N1 (stereo not drawn),B (80%< substrate protein remaining %≤ 100%)
6,O=C1CCC(N2Cc3cccc(CN4CCC(N5CCN(c6cccc(Cl)c6Cl)CC5)C(F)(F)C4)c3C2=O)C(=O)N1 (stereo not drawn),A (0% ≤ substrate protein remaining % ≤ 80%)

# Molecular target: GSPT1 (Homo sapiens, UniProt P15170+Q96SW2)
# Assay: as above
# Details: 24 hours treatment, compounds at 50 nM and 500 nM (concentration behind the class not stated)
row,SMILES,substrate protein remaining % (GSPT1)
1,CC1(C)CCC(CN2CCN(C3CCN(C(=O)c4ccc5c(c4)CN(C4CCC(=O)NC4=O)C5=O)CC3(F)F)CC2)=C(c2ccc(Cl)cc2)C1 (stereo not drawn),A (0% ≤ substrate protein remaining % ≤ 80%)
2,O=C1CCC(N2Cc3cc(CN4CCC(N5CCN(c6cccc(Cl)c6Cl)CC5)C(F)(F)C4)cc(F)c3C2=O)C(=O)N1 (stereo not drawn),A (0% ≤ substrate protein remaining % ≤ 80%)
3,CC1(C)CCC(C(=O)N2CCN(C3CCN(C(=O)c4ccc5c(c4)C(=O)N(C4CCC(=O)NC4=O)C5=O)CC3(F)F)CC2)=C(c2ccc(Cl)cc2)C1 (stereo not drawn),A (0% ≤ substrate protein remaining % ≤ 80%)
4,CC1(C)CCC(C(=O)N2CCN(C3CCN(Cc4ccc5c(c4)C(=O)N(C4CCC(=O)NC4=O)C5=O)CC3(F)F)CC2)=C(c2ccc(Cl)cc2)C1 (stereo not drawn),A (0% ≤ substrate protein remaining % ≤ 80%)
5,O=C1CCC(N2Cc3c(C(=O)N4CCC(N5CCN(C(c6ccccc6)c6ccccn6)CC5)C(F)(F)C4)cccc3C2=O)C(=O)N1 (stereo not drawn),A (0% ≤ substrate protein remaining % ≤ 80%)
6,O=C1CCC(N2Cc3cccc(CN4CCC(N5CCN(c6cccc(Cl)c6Cl)CC5)C(F)(F)C4)c3C2=O)C(=O)N1 (stereo not drawn),A (0% ≤ substrate protein remaining % ≤ 80%)

# Molecular target: IKZF1 (Homo sapiens, UniProt Q13422+Q96SW2)
# Assay: as above
# Details: 24 hours treatment, compounds at 50 nM and 500 nM (concentration behind the class not stated)
row,SMILES,substrate protein remaining % (IKZF 1)
1,CC1(C)CCC(CN2CCN(C3CCN(C(=O)c4ccc5c(c4)CN(C4CCC(=O)NC4=O)C5=O)CC3(F)F)CC2)=C(c2ccc(Cl)cc2)C1 (stereo not drawn),B (80%< substrate protein remaining %≤ 100%)
2,O=C1CCC(N2Cc3cc(CN4CCC(N5CCN(c6cccc(Cl)c6Cl)CC5)C(F)(F)C4)cc(F)c3C2=O)C(=O)N1 (stereo not drawn),B (80%< substrate protein remaining %≤ 100%)
3,CC1(C)CCC(C(=O)N2CCN(C3CCN(C(=O)c4ccc5c(c4)C(=O)N(C4CCC(=O)NC4=O)C5=O)CC3(F)F)CC2)=C(c2ccc(Cl)cc2)C1 (stereo not drawn),B (80%< substrate protein remaining %≤ 100%)
4,CC1(C)CCC(C(=O)N2CCN(C3CCN(Cc4ccc5c(c4)C(=O)N(C4CCC(=O)NC4=O)C5=O)CC3(F)F)CC2)=C(c2ccc(Cl)cc2)C1 (stereo not drawn),B (80%< substrate protein remaining %≤ 100%)
5,O=C1CCC(N2Cc3c(C(=O)N4CCC(N5CCN(C(c6ccccc6)c6ccccn6)CC5)C(F)(F)C4)cccc3C2=O)C(=O)N1 (stereo not drawn),A (0% ≤ substrate protein remaining % ≤ 80%)
6,O=C1CCC(N2Cc3cccc(CN4CCC(N5CCN(c6cccc(Cl)c6Cl)CC5)C(F)(F)C4)c3C2=O)C(=O)N1 (stereo not drawn),A (0% ≤ substrate protein remaining % ≤ 80%)

# Molecular target: IKZF2 (Homo sapiens, UniProt Q96SW2+Q9UKS7)
# Assay: as above
# Details: 24 hours treatment, compounds at 50 nM and 500 nM (concentration behind the class not stated)
row,SMILES,substrate protein remaining % (IKZF2)
1,CC1(C)CCC(CN2CCN(C3CCN(C(=O)c4ccc5c(c4)CN(C4CCC(=O)NC4=O)C5=O)CC3(F)F)CC2)=C(c2ccc(Cl)cc2)C1 (stereo not drawn),B (80%< substrate protein remaining %≤ 100%)
2,O=C1CCC(N2Cc3cc(CN4CCC(N5CCN(c6cccc(Cl)c6Cl)CC5)C(F)(F)C4)cc(F)c3C2=O)C(=O)N1 (stereo not drawn),B (80%< substrate protein remaining %≤ 100%)
3,CC1(C)CCC(C(=O)N2CCN(C3CCN(C(=O)c4ccc5c(c4)C(=O)N(C4CCC(=O)NC4=O)C5=O)CC3(F)F)CC2)=C(c2ccc(Cl)cc2)C1 (stereo not drawn),B (80%< substrate protein remaining %≤ 100%)
4,CC1(C)CCC(C(=O)N2CCN(C3CCN(Cc4ccc5c(c4)C(=O)N(C4CCC(=O)NC4=O)C5=O)CC3(F)F)CC2)=C(c2ccc(Cl)cc2)C1 (stereo not drawn),A (0% ≤ substrate protein remaining % ≤ 80%)
5,O=C1CCC(N2Cc3c(C(=O)N4CCC(N5CCN(C(c6ccccc6)c6ccccn6)CC5)C(F)(F)C4)cccc3C2=O)C(=O)N1 (stereo not drawn),A (0% ≤ substrate protein remaining % ≤ 80%)
6,O=C1CCC(N2Cc3cccc(CN4CCC(N5CCN(c6cccc(Cl)c6Cl)CC5)C(F)(F)C4)c3C2=O)C(=O)N1 (stereo not drawn),B (80%< substrate protein remaining %≤ 100%)

# Molecular target: IKZF3 (Homo sapiens, UniProt Q96SW2+Q9UKT9)
# Assay: as above
# Details: 24 hours treatment, compounds at 50 nM and 500 nM (concentration behind the class not stated)
row,SMILES,substrate protein remaining % (IKZF3)
1,CC1(C)CCC(CN2CCN(C3CCN(C(=O)c4ccc5c(c4)CN(C4CCC(=O)NC4=O)C5=O)CC3(F)F)CC2)=C(c2ccc(Cl)cc2)C1 (stereo not drawn),B (80%< substrate protein remaining %≤ 100%)
2,O=C1CCC(N2Cc3cc(CN4CCC(N5CCN(c6cccc(Cl)c6Cl)CC5)C(F)(F)C4)cc(F)c3C2=O)C(=O)N1 (stereo not drawn),B (80%< substrate protein remaining %≤ 100%)
3,CC1(C)CCC(C(=O)N2CCN(C3CCN(C(=O)c4ccc5c(c4)C(=O)N(C4CCC(=O)NC4=O)C5=O)CC3(F)F)CC2)=C(c2ccc(Cl)cc2)C1 (stereo not drawn),B (80%< substrate protein remaining %≤ 100%)
4,CC1(C)CCC(C(=O)N2CCN(C3CCN(Cc4ccc5c(c4)C(=O)N(C4CCC(=O)NC4=O)C5=O)CC3(F)F)CC2)=C(c2ccc(Cl)cc2)C1 (stereo not drawn),B (80%< substrate protein remaining %≤ 100%)
5,O=C1CCC(N2Cc3c(C(=O)N4CCC(N5CCN(C(c6ccccc6)c6ccccn6)CC5)C(F)(F)C4)cccc3C2=O)C(=O)N1 (stereo not drawn),A (0% ≤ substrate protein remaining % ≤ 80%)
6,O=C1CCC(N2Cc3cccc(CN4CCC(N5CCN(c6cccc(Cl)c6Cl)CC5)C(F)(F)C4)c3C2=O)C(=O)N1 (stereo not drawn),B (80%< substrate protein remaining %≤ 100%)

# Molecular target: WEE1 (Homo sapiens, UniProt P30291+Q96SW2)
# Assay: as above
# Details: 24 hours treatment, compounds at 50 nM and 500 nM (concentration behind the class not stated)
row,SMILES,substrate protein remaining % (WEE1)
1,CC1(C)CCC(CN2CCN(C3CCN(C(=O)c4ccc5c(c4)CN(C4CCC(=O)NC4=O)C5=O)CC3(F)F)CC2)=C(c2ccc(Cl)cc2)C1 (stereo not drawn),B (80%< substrate protein remaining %≤ 100%)
2,O=C1CCC(N2Cc3cc(CN4CCC(N5CCN(c6cccc(Cl)c6Cl)CC5)C(F)(F)C4)cc(F)c3C2=O)C(=O)N1 (stereo not drawn),B (80%< substrate protein remaining %≤ 100%)
3,CC1(C)CCC(C(=O)N2CCN(C3CCN(C(=O)c4ccc5c(c4)C(=O)N(C4CCC(=O)NC4=O)C5=O)CC3(F)F)CC2)=C(c2ccc(Cl)cc2)C1 (stereo not drawn),B (80%< substrate protein remaining %≤ 100%)
4,CC1(C)CCC(C(=O)N2CCN(C3CCN(Cc4ccc5c(c4)C(=O)N(C4CCC(=O)NC4=O)C5=O)CC3(F)F)CC2)=C(c2ccc(Cl)cc2)C1 (stereo not drawn),A (0% ≤ substrate protein remaining % ≤ 80%)
5,O=C1CCC(N2Cc3c(C(=O)N4CCC(N5CCN(C(c6ccccc6)c6ccccn6)CC5)C(F)(F)C4)cccc3C2=O)C(=O)N1 (stereo not drawn),A (0% ≤ substrate protein remaining % ≤ 80%)
6,O=C1CCC(N2Cc3cccc(CN4CCC(N5CCN(c6cccc(Cl)c6Cl)CC5)C(F)(F)C4)c3C2=O)C(=O)N1 (stereo not drawn),A (0% ≤ substrate protein remaining % ≤ 80%)
